# Laboratory results reported in paper PMC11507974, “Phytochemical Analysis, Antioxidant Activity and Bioassay-Guided Isolation of Acetylcholinesterase and Butyrylcholinesterase Inhibitors from Horsfieldia polyspherula Bark (Myristicaceae)” (Tropical Life Sciences Research, 2024).
# Protein sequences, listed by entry. Tags and fused reporters are not part of them. Residues count along the entry.
# UniProt O42275, 24-633: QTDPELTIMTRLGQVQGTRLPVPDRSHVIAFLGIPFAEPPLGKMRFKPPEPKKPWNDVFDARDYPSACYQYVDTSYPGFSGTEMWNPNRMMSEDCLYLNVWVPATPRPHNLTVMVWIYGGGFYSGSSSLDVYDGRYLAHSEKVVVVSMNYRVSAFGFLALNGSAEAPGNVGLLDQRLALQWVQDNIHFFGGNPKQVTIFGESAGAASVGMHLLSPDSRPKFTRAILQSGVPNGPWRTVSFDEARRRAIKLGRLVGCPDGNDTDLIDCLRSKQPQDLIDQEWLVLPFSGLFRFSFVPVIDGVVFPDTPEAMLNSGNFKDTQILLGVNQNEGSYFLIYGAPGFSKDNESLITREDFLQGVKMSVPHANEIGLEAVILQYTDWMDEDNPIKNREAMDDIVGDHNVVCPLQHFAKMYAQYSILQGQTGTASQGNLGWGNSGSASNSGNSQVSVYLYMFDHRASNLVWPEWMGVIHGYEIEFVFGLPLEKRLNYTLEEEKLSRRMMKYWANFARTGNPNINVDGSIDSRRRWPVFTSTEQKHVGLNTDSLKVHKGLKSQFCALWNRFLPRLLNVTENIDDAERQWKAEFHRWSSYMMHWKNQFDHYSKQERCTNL
# Biological target: T1, AChE from Electrophorus electricus (electric eel) Type V-S (Electrophorus electricus, UniProt O42275)
# T1 construct: purified AChE from Electrophorus electricus (electric eel) Type V-S (C2888-1K); purchased Sigma Aldrich, Germany C2888-1K
# Assay type: biochemical
# Experimental: To assess the inhibitory activity of H. polyspherula extract, fractions and isolated compounds towards AChE and BuChE, Ellman’s spectrophotometric method was followed ([Ellman et al. 1961]) using purified AChE from Electrophorus electricus (electric eel) Type V-S (C2888-1K), and BuChE from equine serum lyophilized powder (C7512-1.2KU) all from Sigma Aldrich, Germany. The reaction took place in a final volume of 200 μL of a (140 μL to 160 μL) 100 mM phosphate-buffered solution at pH 7.5 for AChE and 8.0 for BuChE, containing (20 μL) 0.2 U of AChE or 0.1 U of BuChE. Inhibition curves were made by pre-incubating this mixture with six concentrations of each sample (20 μL) for 15 min. A sample with no compound (blank) was present to determine the 100% of enzyme activity. […] Changes in absorbance were detected at 412 nm in a 96 well spectrophotometric microplate reader (Bostch Biotek) after 30 min. […] Data are analysed using excel, graph pad prism 9.0.0 and expressed as means ± SD of at least three different experiments in triplicate. […]
smiles,measurement,setting,value
"CNC(=O)Oc1ccc2c(c1)[C@]1(C)CCN(C)[C@@H]1N2C [Eserine, reference compound]",% inhibition AChE,"control, tested at 0.2 μM",76.61 ± 1.31%
same,IC50,pure compounds (μM for the pure compound),0.07 µM
